# AlphaSeq binding of Ab-14 heavy chain variants to a spike HR2 peptide

From the AlphaSeq antibody data of Engelhart et al. 2022 (doi:10.1038/s41597-022-01779-4), copy in the FLAb collection.

Target peptide (SARS-CoV-2 spike, HR2 region): PDVDLGDISGINAS

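Variants in AAYL49 differ from the parent at up to three CDR positions; double and triple changes were sampled at random. AlphaSeq pools MATa yeast showing the antibodies with MATalpha yeast showing the peptide. Binding brings cells together so that they mate, and sequencing counts the barcode pairs among the diploids. Scores were corrected for input abundance and mapped to Kd with protein pairs of known affinity run in the same pool. Mating was done three times.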

Parent scFv Ab-14: VH joined to VL by three GGGGS repeats. Changes lie in the heavy chain CDRs alone.
VH: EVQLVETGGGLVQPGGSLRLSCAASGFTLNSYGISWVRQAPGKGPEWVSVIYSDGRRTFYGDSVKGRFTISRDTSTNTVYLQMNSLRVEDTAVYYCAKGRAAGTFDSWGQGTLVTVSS
VL: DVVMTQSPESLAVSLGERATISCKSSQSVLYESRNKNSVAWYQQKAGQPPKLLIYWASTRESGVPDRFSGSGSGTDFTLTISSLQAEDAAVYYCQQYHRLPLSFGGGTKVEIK

Substitutions are numbered in sequence along the VH above, starting at 1 (not Kabat).
This list gathers variants with a substitution at S63 (VH, numbered from residue 1).
Kd is apparent (estimated from mating counts) and averaged on the log scale over replicates with a signal. Smaller is tighter.
An entry "nd" has no value in the source: the pair was not observed among the diploids in any replicate. This suggests poor binding but is not conclusive.
As a blank, each scFv also met three strains without target: over library AAYL49, 15% of these pairings were detected, typically at 11 µM and seldom below 680 nM.

| changes | Kd (apparent) | seen in |
|---|---|---|
| G55N/S63G/K65P | nd | 0 of 3 |
| G33C/S63D | nd | 0 of 3 |
| Y32G/S63G/V64N | nd | 0 of 3 |
| R56Q/S63T/A101M | 5.5 nM | 3 of 3 |
| R57W/S63N/F105Q | nd | 0 of 3 |
| G55H/R56Y/S63F | 5.4 µM | 2 of 3 |
| V50Y/S53E/S63R | nd | 0 of 3 |
| G33N/S63H/G99S | 8.0 µM | 1 of 3 |
| I34S/S63F/G103M | 180 µM | 1 of 3 |
| S63G/K65L/G103V | 570 nM | 3 of 3 |
| Y32K/I51Q/S63K | 3.9 µM | 1 of 3 |
| S35M/R57S/S63R | nd | 0 of 3 |
| S63L/A102H/T104Q | nd | 0 of 3 |
| D54L/S63R/V64R | 14 µM | 3 of 3 |
| F59S/S63Y/K65G | 1.5 µM | 3 of 3 |
| T28I/L29M/S63T | 340 nM | 3 of 3 |
| R56E/S63R/K65C | 15 µM | 2 of 3 |
| G26E/S63T/T104K | 4.2 µM | 1 of 3 |
| S31G/S63L/G99L | 270 nM | 3 of 3 |
| G33H/V50K/S63W | 140 µM | 2 of 3 |
| Y32H/R56I/S63Q | 470 nM | 2 of 3 |
| G61L/S63Y/V64C | nd | 0 of 3 |
| G33C/S63V/R100H | nd | 0 of 3 |
| Y52A/G61L/S63K | 540 nM | 1 of 3 |
| S53M/Y60W/S63L | nd | 0 of 3 |
| S63A | 11 nM | 3 of 3 |
| G33W/I34R/S63N | nd | 0 of 3 |
| G26I/G61I/S63P | 13 µM | 3 of 3 |
| L29W/I34L/S63N | 6.8 µM | 1 of 3 |
| G55K/S63C/K65H | 23 µM | 3 of 3 |
| S53M/S63D | nd | 0 of 3 |
| F27M/S63W/V64C | 16 µM | 2 of 3 |
| I51P/S53H/S63P | nd | 0 of 3 |
| N30W/D62S/S63K | 33 nM | 3 of 3 |
| S63K/A102C/G103A | nd | 0 of 3 |
| T28A/S63P/S107Q | 11 nM | 3 of 3 |
| S31A/S63A/A102D | 8.0 nM | 3 of 3 |
| Y32W/S63T/F105W | nd | 0 of 3 |
| Y52H/R56T/S63I | nd | 0 of 3 |
| T28Q/F59E/S63P | 18 nM | 3 of 3 |
| Y32F/I34Y/S63T | 6.2 µM | 2 of 3 |
| G26P/S63V/V64W | 4.6 µM | 1 of 3 |
| T58A/S63G/T104K | 38 nM | 3 of 3 |
| I51S/F59C/S63T | nd | 0 of 3 |
| Y60I/S63G/F105M | 3.1 µM | 2 of 3 |
| Y32R/S63C/T104M | nd | 0 of 3 |
| T28K/S63Y/V64E | nd | 0 of 3 |
| S63H/K65M/F105C | 3.2 µM | 3 of 3 |
| D62F/S63K/T104H | 19 µM | 1 of 3 |
| L29H/S63A/A102C | 1.1 mM | 1 of 3 |
| R56W/S63L/V64F | 110 µM | 1 of 3 |
| S63E/K65L/G99S | 1.8 µM | 1 of 3 |
| F27N/S63F/R100I | 87 µM | 1 of 3 |
| N30W/S35W/S63C | 25 µM | 1 of 3 |
| G33D/S63N/V64D | nd | 0 of 3 |
| D54P/F59P/S63K | 1.2 µM | 1 of 3 |
| S53T/G55R/S63G | 2.5 µM | 1 of 3 |
| S63H/D106F | 6.4 nM | 3 of 3 |
| G33T/S63M/F105Q | nd | 0 of 3 |
| L29H/I34S/S63T | 350 µM | 2 of 3 |
| S53N/S63H/A101T | 150 nM | 3 of 3 |
| Y52K/G55A/S63F | 8.5 nM | 1 of 3 |
| G55I/S63F/S107V | 3.0 µM | 1 of 3 |
| G33R/S63F/D106S | nd | 0 of 3 |

Picked from the list: the 10 lowest averages where every replicate gave a value.

{"changes": "R56Q/S63T/A101M", "Kd (apparent)": "5.5 nM", "seen in": "3 of 3"}
{"changes": "S63H/D106F", "Kd (apparent)": "6.4 nM", "seen in": "3 of 3"}
{"changes": "S31A/S63A/A102D", "Kd (apparent)": "8.0 nM", "seen in": "3 of 3"}
{"changes": "T28A/S63P/S107Q", "Kd (apparent)": "11 nM", "seen in": "3 of 3"}
{"changes": "S63A", "Kd (apparent)": "11 nM", "seen in": "3 of 3"}
{"changes": "T28Q/F59E/S63P", "Kd (apparent)": "18 nM", "seen in": "3 of 3"}
{"changes": "N30W/D62S/S63K", "Kd (apparent)": "33 nM", "seen in": "3 of 3"}
{"changes": "T58A/S63G/T104K", "Kd (apparent)": "38 nM", "seen in": "3 of 3"}
{"changes": "S53N/S63H/A101T", "Kd (apparent)": "150 nM", "seen in": "3 of 3"}
{"changes": "S31G/S63L/G99L", "Kd (apparent)": "270 nM", "seen in": "3 of 3"}